Earlier results as cited in PMC6121244, “Differences in Functional Expression of Connexin43 and NaV1.5 by Pan- and Class-Selective Histone Deacetylase Inhibition in Heart” (International Journal of Molecular Sciences, 2018).

System: cardiac sodium current (INa) in NMVMs, primarily NaV1.5
Set-up: method as in PMID 27638876
Settings: previous experiments ref 13; cited from earlier work

O=C(CCCCCCC(=O)Nc1ccccc1)NO [VOR, suberoylanilide hydroxamic acid]
positive shift in half activation voltage (V½): +2 to +8 mV
shift in Vm-dependent gNa inactivation curve: no shift
